Experimental data from PMC11589570, “Critical assessment of LC3/GABARAP ligands used for degrader development and ligandability of LC3/GABARAP binding pockets” (Nature Communications, 2024).

Experiments:
Assay in all cases: FP
LC3B_(1-120) (human) = LC3B_(1-120) (human) (UniProt Q9GZQ8)
_(1-116) (human) = _(1-116) (human) (UniProt O95166)
1_(1-117) (human) = 1_(1-117) (human) (UniProt Q9H0R8)

Ki (LC3B_(1-120) (human)): 299 µM
Ki (_(1-116) (human)): 10.1 µM
Ki (1_(1-117) (human)): 11.2 µM
Substance: PCM1-LIR
